# Target: T1, Alpha-1A adrenergic receptor (Homo sapiens, UniProt P35348)
# T1 sequence (P35348 whole entry): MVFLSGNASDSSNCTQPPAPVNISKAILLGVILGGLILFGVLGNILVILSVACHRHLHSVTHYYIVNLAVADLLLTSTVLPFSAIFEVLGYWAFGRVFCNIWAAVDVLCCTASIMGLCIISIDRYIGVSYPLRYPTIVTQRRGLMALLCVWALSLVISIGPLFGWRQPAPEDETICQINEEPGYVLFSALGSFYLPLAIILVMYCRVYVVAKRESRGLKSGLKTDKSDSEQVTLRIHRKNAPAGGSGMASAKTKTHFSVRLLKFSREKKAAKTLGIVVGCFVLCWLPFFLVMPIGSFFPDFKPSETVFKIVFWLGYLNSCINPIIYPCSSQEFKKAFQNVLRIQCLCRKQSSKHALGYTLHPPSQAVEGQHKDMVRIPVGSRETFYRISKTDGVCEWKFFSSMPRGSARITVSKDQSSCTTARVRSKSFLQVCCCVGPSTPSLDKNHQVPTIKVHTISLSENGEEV
# Assay: Binding affinity for human Alpha-1A adrenergic receptor
smiles,measurement,value
COc1ccccc1N1CCN(CCN2C(=O)CC3(CCCC3)CC2=O)CC1 [BMY-7378],Ki,290 nM
